Screening data as filed in PubChem.
Cneo AK release – Cryptococcus neoformans cell lysis inducers, primary screen, AK release luminescence, single concentration | lysis activity, % at 15 µM | AID 651654, 2012 | C. neoformans lysis, adenylate kinase release luminescence, 4 h; normalised: neutral wells 0, clomiphene wells 100 | 0.2% of 360,000 active;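 active = mean lysis activity across replicates of at least 80%, whatever share of replicates individually reach that level; inactive = mean lysis activity below 80%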
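Material: C. neoformans cells; Schedule: 4 h static compound exposure, 37 °C, read 1 h post-reagent; Measured by: adenylate kinase release luminescence; Read-out: signal increase indicating cell lysis; Controls: Clomiphene as positive lysis control.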
E-selectin induc – E-selectin induction in HUVECs, primary screen, imaging, HUVEC, immunofluorescence imaging, single point; P16581; normalized: neutral wells 0, TNF-alpha wells 100; activation, % at 7.58 µM; 0.37% of 260,000 active;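 active = mean E-selectin-positive cell signal at least 10% of the positive control, reached in at least 60% of replicates, without over 20% cell loss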
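assay system = HUVEC, human umbilical vein endothelial cells | input = 3,000 HUVEC seeded per well | medium = EGM-2 growth medium on 0.1% gelatin-coated wells | dosing = one compound dose added by pin transfer | signal = immunofluorescence imaging | read-out basis = % PE-positive cells | control set = TNF-alpha, DMSO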
Yeast UUG start – alters start codon recognition fidelity in yeast | S. cerevisiae UUG-firefly luciferase reporter, luminescence/redox ratio | activity score, % at 18.7 µM | 350,000 compounds, 0.13% hits | AID 602363;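 active = replicate mean at a twofold rise or more, about +100% in these data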;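 note: firefly luciferase made from a UUG start codon reports start codon fidelity; reporter light over untreated wells divided by growth signal over untreated wells; some hits fall short of that in this replicate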
DENV2 CPE rescue – inhibitors of DENV2 cytopathic effect, primary screen, cell-based, plate reader, single concentration; DENV2-infected cells, cytopathic effect rescue; CPE inhibition, % at 9.99 µM; 1.7% of 350,000 active; AID 651640, 2012; in the data active = CPE inhibition above about 20%, passing the limit was not always enough; tested in BHK-21 cells;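 also: 0% = median of neutral control wells and 100% = median of positive control wells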
Starred values were filed as active, the others as inactive; nt = not tested or not shown. The list is not random: actives were taken first. Their share in the collection is about 1.8%.

Keys – A = Cneo AK release; B = E-selectin induc; C = Yeast UUG start; D = DENV2 CPE rescue
SMILES: O=C(C[C@H]1CC[C@H]2[C@@H](COC[C@@H](O)CN2C(=O)Nc2ccc(Cl)c(Cl)c2)O1)NCc1ccc(Cl)cc1
  A = -6	B = 0	C = nt	D = 29*
SMILES: O=C(C[C@H]1CC[C@@H]2[C@H](COC[C@H](O)CN2C(=O)C2CCCC2)O1)NCc1ccncc1
  A = 67	B = 0	C = 15	D = 30*
SMILES: CCNC(=O)C[C@H]1CC[C@@H]2[C@H](COC[C@H](O)CN2C(=O)C2CCCC2)O1
  A = -4	B = 1	C = 18	D = -8
SMILES: Cc1ccc(S(=O)(=O)N(C)C[C@@H]2Oc3ccc(NC(=O)Nc4cccc5ccccc45)cc3C(=O)N([C@H](C)CO)C[C@@H]2C)cc1
  A = nt	B = 0	C = nt	D = nt
SMILES: COc1ccc2c3c(n(C)c2c1)[C@H](CO)N(C(=O)CC1CC1)CC31CCN(Cc2ccncc2)CC1
  A = nt	B = 2	C = nt	D = 1
SMILES: COc1cccc(NC(=O)N2C[C@H](O)COC[C@H]3O[C@@H](CC(=O)NCc4ccccc4F)CC[C@@H]32)c1
  A = 119*	B = 0	C = nt	D = 0
SMILES: O=C(C[C@H]1CC[C@@H]2[C@H](COC[C@H](O)CN2CC2CCCCC2)O1)NCC1CC1
  A = -3	B = 0	C = -8	D = 29*
SMILES: O=C(C[C@@H]1CC[C@H]2[C@@H](COC[C@H](O)CN2CC2CCOCC2)O1)N1CCOCC1
  A = -2	B = 0	C = -6	D = -3
SMILES: O=C(C[C@H]1CC[C@@H]2[C@H](COC[C@H](O)CN2CC2CCOCC2)O1)N1CCOCC1
  A = 1	B = 0	C = 22	D = 49*
SMILES: Cc1cccc(S(=O)(=O)N2CC[C@@H]3[C@H](CO)N(C)c4ccc(-c5ccc(C#N)cc5)cc4[C@@H]32)c1
  A = 1	B = -1	C = -4	D = -13

Record cards (already shown). Order of values: Cneo AK release	E-selectin induc	Yeast UUG start	DENV2 CPE rescue
Profile of O=C(C[C@H]1CC[C@@H]2[C@H](COC[C@H](O)CN2CC2CCOCC2)O1)N1CCOCC1 : 1	0	22	49*
Profile of CCNC(=O)C[C@H]1CC[C@@H]2[C@H](COC[C@H](O)CN2C(=O)C2CCCC2)O1 : -4	1	18	-8

Continued.
Keys – A = Cneo AK release; B = E-selectin induc; C = Yeast UUG start; D = DENV2 CPE rescue
SMILES: CCCC(=O)N1C[C@@H]2[C@H](c3ccccc31)[C@H](CO)N2C(=O)Nc1ccccc1
  A = -7	B = 0	C = 12	D = 3
SMILES: CN(c1ccccc1)c1ncnc2c1ncn2C
  A = -1	B = nt	C = 2	D = 89*
SMILES: CN(C)c1ncnc2c1ncn2-c1ccccc1
  A = 0	B = 0	C = -23	D = -3
SMILES: CCC/C(=C1/c2ccccc2C(=O)N1c1ccccc1)c1ccc(O[C@@H]2CCCCO2)cc1
  A = 0	B = 0	C = -18	D = 37*
SMILES: C[C@@H]1CCCCO[C@@H](CN(C)S(=O)(=O)c2cn(C)cn2)[C@H](C)CN([C@H](C)CO)C(=O)c2cc(NS(=O)(=O)c3ccccc3)ccc2O1
  A = 51	B = 0	C = 15	D = 6
SMILES: Cc1noc(C)c1CSCC(=O)Nc1cc(C(F)(F)F)ccc1N1CCOCC1
  A = -2	B = 41*	C = -15	D = 3
SMILES: CCCNC(=O)Nc1ccc2c(c1)OC[C@@H](C)N(Cc1ccccc1)C[C@@H](C)[C@H](OC)CN(C)C2=O
  A = 3	B = 0	C = -1	D = 2
SMILES: Cc1noc(C)c1NC(=O)Nc1ccc2c(c1)CC(=O)N([C@@H](C)CO)C[C@H](C)[C@@H](CN(C)C(=O)Nc1ccccc1)O2
  A = 1	B = 0	C = 9	D = 83*
SMILES: Cc1noc(C)c1NC(=O)Nc1ccc2c(c1)CC(=O)N([C@H](C)CO)C[C@@H](C)[C@H](CN(C)C(=O)Nc1ccc(F)cc1)O2
  A = -2	B = 39*	C = 12	D = 7
SMILES: Cc1noc(C)c1NC(=O)Nc1ccc2c(c1)CC(=O)N([C@@H](C)CO)C[C@@H](C)[C@@H](CN(C)C(=O)Nc1ccccc1)O2
  A = 3	B = 0	C = 2	D = -8

The list goes on; the last two above are carried over.
Keys – A = Cneo AK release; B = E-selectin induc; C = Yeast UUG start; D = DENV2 CPE rescue
SMILES: Cc1noc(C)c1NC(=O)Nc1ccc2c(c1)CC(=O)N([C@H](C)CO)C[C@@H](C)[C@H](CN(C)C(=O)Nc1ccc(F)cc1)O2
  A = -2	B = 39*	C = 12	D = 7
SMILES: Cc1noc(C)c1NC(=O)Nc1ccc2c(c1)CC(=O)N([C@@H](C)CO)C[C@@H](C)[C@@H](CN(C)C(=O)Nc1ccccc1)O2
  A = 3	B = 0	C = 2	D = -8
SMILES: Cc1noc(C)c1NC(=O)N(C)C[C@H]1Oc2ccc(NC(=O)Nc3ccc(F)cc3)cc2CC(=O)N([C@@H](C)CO)C[C@@H]1C
  A = -1	B = 0	C = 13	D = 8
SMILES: O=S(=O)(N[C@@H]1CC[C@H](CCn2cc(-c3cccc(F)c3)nn2)O[C@@H]1CO)c1ccc(F)cc1
  A = -2	B = 0	C = -7	D = -5
SMILES: CCCNC(=O)Nc1ccc2c(c1)OC[C@H](C)N(CCC(F)(F)F)C[C@@H](C)[C@H](OC)CN(C)C2=O
  A = -2	B = -1	C = nt	D = -4
SMILES: Cc1cc(O)c(C(C)C)cc1NC(=S)Nc1cc(C(C)C)c(O)cc1C
  A = nt	B = nt	C = nt	D = 74*
SMILES: CCOc1ccc(NC(=O)Nc2cc(C(C)C)c(O)cc2C)cc1
  A = -5	B = -1	C = -9	D = 0
SMILES: Nc1nnc(SCc2nnc(-c3ccccc3)o2)s1
  A = nt	B = 523*	C = nt	D = -5
SMILES: O=C(Oc1ccccc1)c1ccccc1C(=O)Oc1ccccc1
  A = -11	B = nt	C = -14	D = 27*
SMILES: O=C(Oc1ccccc1)c1cccc2cccc(C(=O)Oc3ccccc3)c12
  A = nt	B = 0	C = nt	D = 8
SMILES: C[C@@H]1CCCCO[C@H](CN(C)C(=O)Cc2ccccc2)[C@@H](C)CN([C@@H](C)CO)C(=O)c2cc(NS(=O)(=O)c3cn(C)cn3)ccc2O1
  A = -3	B = 0	C = 0	D = 31*
SMILES: C[C@@H]1CN([C@@H](C)CO)C(=O)c2cc(NS(=O)(=O)c3cn(C)cn3)ccc2O[C@@H](C)CCCCO[C@@H]1CN(C)C(=O)Cc1ccccc1
  A = -2	B = 0	C = -4	D = 63*

Single values from above.
CCOc1ccc(NC(=O)Nc2cc(C(C)C)c(O)cc2C)cc1 in DENV2 CPE rescue reads 0
C[C@@H]1CCCCO[C@H](CN(C)C(=O)Cc2ccccc2)[C@@H](C)CN([C@@H](C)CO)C(=O)c2cc(NS(=O)(=O)c3cn(C)cn3)ccc2O1 in DENV2 CPE rescue reads 31*

Next results.
Values run as follows: Cneo AK release | E-selectin induc | Yeast UUG start | DENV2 CPE rescue
O=C(C[C@@H]1C[C@H]2c3cc(NC(=O)Nc4ccccc4F)ccc3O[C@H]2[C@H](CO)O1)NCC1CC1
    -1 | 0 | 0 | 27*
O=C(C[C@@H]1C[C@@H]2c3cc(NC(=O)Nc4ccccc4F)ccc3O[C@@H]2[C@H](CO)O1)NCC1CC1
    55 | 0 | -4 | 68*
CC(C)(O)C#Cc1ccc([C@H]2[C@H](CO)N3CCCCN(C(=O)c4ccc(F)cc4)C[C@@H]23)cc1
    -1 | 0 | 13 | 21*
CC(C)CC#Cc1ccc([C@H]2[C@@H](CO)N3CCCCN(C(=O)c4ccc5c(c4)OCO5)C[C@H]23)cc1
    0 | 0 | -7 | -7
CC(C)CC#Cc1ccc([C@H]2[C@@H](CO)N3CCCCN(C(=O)c4ccc5c(c4)OCO5)C[C@@H]23)cc1
    -1 | 0 | 8 | 24*
CC(C)(O)C#Cc1ccc([C@@H]2[C@H](CO)N3CCCCN(S(C)(=O)=O)C[C@@H]23)cc1
    9 | 0 | 22 | 37*
CC(C)COc1ccc(-c2nn(-c3ccccc3)cc2CO)cc1
    -5 | nt | -1 | -4
OCc1cn(-c2ccccc2)nc1-c1ccc(Br)cc1
    0 | 0 | -2 | 48*
COc1ccc(-c2ccc3c(c2)[C@@H]2C[C@H](N(C)C(=O)C(C)(C)C)[C@H]([C@H](C)O)C(=O)N2CC3)cc1
    10 | 0 | 6 | 129*
COCC(=O)N(C)[C@H]1C[C@H]2c3cc(-c4ccccc4)ccc3CCN2C(=O)[C@H]1[C@H](C)O
    -2 | -1 | 16 | -5
CCS(=O)(=O)N1CCC2(CC1)CN(C(=O)Nc1c(C)noc1C)[C@@H](CO)c1[nH]c3cc(OC)ccc3c12
    nt | 0 | nt | 4
O=C(Nc1ccccc1C(=O)NCc1cccnc1)c1ccccc1Cl
    -3 | 0 | -12 | 64*
O=C(Nc1ccc(Cl)cc1C(=O)NCc1cccnc1)c1ccc(Cl)cc1Cl
    -1 | 0 | -7 | 0
Cc1ccc(S(=O)(=O)N2CC[C@@H]3[C@@H](CO)N(C)c4ccc(-c5ccc(C#N)cc5)cc4[C@@H]32)cc1
    -4 | 4 | -20 | -19
N#CCNC(=O)c1nn2c(C(F)(F)F)cc(-c3ccccc3)nc2c1Br
    -2 | 7 | -8 | 7
